# Measurements published in PubChem BioAssay AID811 (The Scripps Research Institute Molecular Screening Center, 2007).
# Protein sequences, listed by entry. Tags and fused reporters are not part of them.
# UniProt O00206, whole entry: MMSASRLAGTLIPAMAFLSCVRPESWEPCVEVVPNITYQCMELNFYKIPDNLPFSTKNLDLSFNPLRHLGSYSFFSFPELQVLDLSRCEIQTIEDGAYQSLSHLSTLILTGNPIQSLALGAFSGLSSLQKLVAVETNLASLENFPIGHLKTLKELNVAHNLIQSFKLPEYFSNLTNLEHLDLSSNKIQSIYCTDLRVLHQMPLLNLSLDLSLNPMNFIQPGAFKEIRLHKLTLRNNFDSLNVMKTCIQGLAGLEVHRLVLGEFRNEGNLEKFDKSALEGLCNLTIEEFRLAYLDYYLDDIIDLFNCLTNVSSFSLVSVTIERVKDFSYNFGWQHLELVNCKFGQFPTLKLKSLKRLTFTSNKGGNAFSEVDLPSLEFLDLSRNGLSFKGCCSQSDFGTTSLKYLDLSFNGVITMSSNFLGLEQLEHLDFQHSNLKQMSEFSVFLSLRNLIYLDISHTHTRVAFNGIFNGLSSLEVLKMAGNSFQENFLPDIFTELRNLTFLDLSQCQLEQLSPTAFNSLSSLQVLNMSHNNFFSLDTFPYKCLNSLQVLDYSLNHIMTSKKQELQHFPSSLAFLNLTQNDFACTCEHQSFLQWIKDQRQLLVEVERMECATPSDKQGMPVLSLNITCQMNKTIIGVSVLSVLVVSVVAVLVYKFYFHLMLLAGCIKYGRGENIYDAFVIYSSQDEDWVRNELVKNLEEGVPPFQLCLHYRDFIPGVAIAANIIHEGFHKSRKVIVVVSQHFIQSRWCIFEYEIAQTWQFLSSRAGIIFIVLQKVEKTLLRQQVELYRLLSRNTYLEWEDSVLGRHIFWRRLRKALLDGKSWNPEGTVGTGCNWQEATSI
# The entries are a selection whose mix differs from that of the whole data set. Active and inactive are the calls of the source. Cut-off read from the data, not from the text of the source: active = inhibition above about 45%; inactive = the rest.
# Molecular target: Toll-like receptor 4 (Homo sapiens) (UniProt O00206)
# Experiment: blocks binding of human TLR4 to MyD88 (AID 811)
# Conditions: Cell-based TLR4-MyD88 binding inhibition assay; at 10 µM; hits give high values
row,Compound,inhibition
1,O=[N+]([O-])C1([N+](=O)[O-])COCOC1,inactive: 18.8%
